The text below walks through data of PubChem BioAssay AID651719 (The Scripps Research Institute Molecular Screening Center, 2012).

Protein sequences, listed by entry. Tags and fused reporters are not part of them. Lines headed by an entry give the natural chain unless they say otherwise; changes in a name come on top.
UniProt O60755: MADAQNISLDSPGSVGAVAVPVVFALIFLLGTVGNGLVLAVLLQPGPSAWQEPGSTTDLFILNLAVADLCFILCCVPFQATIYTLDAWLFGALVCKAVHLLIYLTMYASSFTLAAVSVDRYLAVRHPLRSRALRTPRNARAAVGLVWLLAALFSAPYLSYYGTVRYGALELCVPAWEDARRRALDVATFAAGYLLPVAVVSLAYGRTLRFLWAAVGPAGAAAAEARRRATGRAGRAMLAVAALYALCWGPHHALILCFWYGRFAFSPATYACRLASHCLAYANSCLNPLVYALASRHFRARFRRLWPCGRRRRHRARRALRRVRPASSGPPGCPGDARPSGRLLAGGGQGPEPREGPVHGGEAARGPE

The entries are a selection whose mix differs from that of the whole data set. The source made the active and inactive calls.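 How the source made its calls: active means inhibition above the screen-wide average plus 3 SD (cut at about 13% in these data); inactive means the rest.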

The target in this assay is Galanin receptor type 3 (Homo sapiens) (UniProt O60755). In words: GalR3 antagonists in HEK293 cells, primary screen, cell-based, fluorescence readout (AID 651719).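 Further: forskolin and galanin both at EC90 stimulate the cells; cAMP rise reported by CNG channel membrane potential dye signal; 0% = forskolin plus galanin with DMSO and 100% = forskolin alone.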 The conditions noted are these: HEK293 GalR3-CNG cAMP membrane potential fluorescence; at 3 µM; active compounds read high; galR3 body fused to GalR1 C-terminus.
Regarding `CCCCOc1ccc(C(=O)NCC2(N3CCCCC3)CCCCC2)cc1OC`, the inhibition was inactive: -6.44%. The result for `Cc1cc(SC(NC(=O)c2ccccc2)C(Cl)(Cl)Cl)nc(C(C)C)n1` (stereo unspecified) reads inactive: -1.51%; that for `COP(=O)(OC)N1CC1c1ccccc1` (stereo unspecified), inactive: -5.59%; that for `CC1CCNP(=O)(N(CCCl)CCCl)O1` (stereo unspecified), inactive: 6.76%. As to `O=C(O)C(O)c1ccc(N(CCCl)CCCl)cc1` (stereo unspecified), the inhibition was inactive: -6.78%.

`CCOC(=O)Nc1ccc([As](=O)(O)O)c(O)c1`: the inhibition is inactive: -4.13%. With `O=[N+]([O-])c1ccc(Nc2ccc(Oc3ccc([N+](=O)[O-])cc3[N+](=O)[O-])cc2)c([N+](=O)[O-])c1`, the inhibition was inactive: -8.11%.

With `Cc1cc(SC(NC=O)C(Cl)(Cl)Cl)ncn1` (stereo unspecified), the inhibition is inactive: -4.88%. Regarding `O=P(Nc1ccccn1)(c1cccc2ccccc12)c1cccc2ccccc12`, the inhibition was inactive: -4.02%.

Regarding `CCOC(=O)Nc1cccc([As](=O)(O)O)c1`, the inhibition was inactive: -8.65%.

Regarding `O=C(COc1ccccc1)OC1CN2CCC1CC2` (stereo unspecified), the inhibition was inactive: -0.14%. The result for `O=C(Nc1ccncc1[N+](=O)[O-])c1ccc([N+](=O)[O-])cc1[N+](=O)[O-]` reads inactive: -5.25%; that for `O=C(O)C(=O)c1ccc(N(CCCl)CCCl)cc1`, inactive: 1.2%; that for `COP1(=S)c2c(C)nn(CCC#N)c2N=C(c2ccc(F)cc2)N1C` (stereo unspecified), inactive: -2.73%. For `COC(=O)C1(C)COP(=O)(N2CCCC2)OC1` (stereo unspecified) the value was inactive: -3.04%; for `CCC(C)N(CC(C)C)C(=S)SC(NC(C)=O)C(Cl)(Cl)Cl` (stereo unspecified), inactive: -4.88%; for `CCOC(=O)c1ccc(NC(=O)C(C)(CCl)SC)cc1` (stereo unspecified), inactive: -3.94%. With `O=C(OC1CN2CCC1CC2)c1cccc([N+](=O)[O-])c1` (stereo unspecified), the inhibition is inactive: -10%. In the case of `COc1ccc2nc(NP(=O)(c3ccccc3)c3ccccc3)sc2c1`, the inhibition was inactive: -4.12%.

Take `COc1cc(I)ccc1[As](=O)(O)O`: the inhibition was inactive: -1.89%. The result for `O=P1(N(CCCl)CCCl)Nc2ccccc2N1` reads inactive: -5.15%; that for `O=P1(N(CCCl)CCCl)OCCCN1CCCl` (stereo unspecified), inactive: -5.26%. On to `O=C(OC1CN2CCC1CC2)C12CC3CC(CC(C3)C1)C2` (stereo unspecified), for which the inhibition is inactive: -3.34%. Take `Cc1cc(=O)[nH]c(N[N+](=O)[O-])n1`: the inhibition is inactive: 1.21%. For the compound `Cc1c2c(nc3ccccc13)SC(C(Cl)Cl)C2` (stereo unspecified), the inhibition was inactive: -5.84%.

With `COc1ccc(N/C(=N/P(=O)(N2CCOCC2)N2CCOCC2)N2CCOCC2)cc1`, the inhibition is inactive: -4.61%. For `O=[N+]([O-])c1cc(Oc2ccc([N+](=O)[O-])cc2C(F)(F)F)cc([N+](=O)[O-])c1` the value was inactive: -3.96%; for `Cc1ccc2nc3c(c(C)c2c1)CC(C(Cl)Cl)S3` (stereo unspecified), inactive: 0.17%; for `Cc1ccc(OP(=O)(Nc2ccc([N+](=O)[O-])cn2)Oc2ccc(C)cc2)cc1`, inactive: -5.2%. Turning to `[N-]=[N+]=NC1CCCCC1NC(=O)c1cc([N+](=O)[O-])cc([N+](=O)[O-])c1` (stereo unspecified), the inhibition was inactive: -7%. For `O=[As](O)(c1ccc(O)cc1)c1ccccc1O` the value was inactive: -3.4%; for `C[As](=O)(O)c1cccc(C(=O)O)c1`, inactive: -9.09%. The result for `COc1cc(C(=O)NCC2(N3CCOCC3)CCCCC2)ccc1OCC(C)C` reads inactive: -0.47%; that for `O=[N+]([O-])c1ccc(-c2cc([N+](=O)[O-])c(O)c([N+](=O)[O-])c2)cc1`, inactive: -5.04%.

`O=C(OC1CN2CCC1CC2)c1cccc2[nH]cnc12` (stereo unspecified): the inhibition was inactive: 5.37%. In the case of `CCN(CC)C(=S)SC(NC=O)C(Cl)(Cl)Cl` (stereo unspecified), the inhibition is inactive: 0.64%. The result for `CC(C)NC(=O)NP(=O)(Oc1ccccc1)Oc1ccccc1` reads inactive: -1.44%; that for `CC(C)c1ccc(OP(=O)(Nc2ccccn2)Oc2ccccc2F)cc1` (stereo unspecified), inactive: 3.98%; that for `COC(=O)C1(C)COP(=O)(N2CCCCCC2)OC1` (stereo unspecified), inactive: -4.95%. `ClCCSc1nnc(-c2cccnc2)o1`: the inhibition was inactive: -2.87%.

Take `O=C(O)COc1ccc([As](=O)(O)O)cc1[N+](=O)[O-]`: the inhibition was inactive: -9.26%. For `Nc1ccccc1[As](=O)(O)c1ccccc1` the value was inactive: -3.9%; for `CCOP1(=S)c2c(C)nn(CCC#N)c2N=C(c2ccccc2F)N1C` (stereo unspecified), inactive: -1.19%. For `O=P(Nc1nccs1)(Oc1ccccc1)Oc1ccccc1` the value was inactive: -2%; for `CN(C)C(=O)c1cc([N+](=O)[O-])cc2c1-c1c(cc([N+](=O)[O-])cc1[N+](=O)[O-])C2=O`, inactive: -6.99%; for `O=[N+]([O-])c1ccc2c(c1)nnn2O`, inactive: -7.48%. Turning to `N#CCCN(C(=O)COC(=O)C(O)(c1ccccc1)c1ccccc1)c1ccc(F)cc1`, the inhibition was inactive: -2.39%. The result for `CN(C(=O)Cc1ccccc1)[C@@H]1CC[C@]2(CCCO2)C[C@H]1N1CCCC1` reads inactive: -1.84%; that for `CCOP1(=S)c2c(C)nn(CCC#N)c2N=C(c2ccc(F)cc2)N1C` (stereo unspecified), inactive: -6.52%. `NC(=O)Nc1ccc([As](=O)(O)O)cc1`: the inhibition is inactive: -3.91%. `O=[As](O)(c1cccc(O)c1)c1cccc(O)c1`: the inhibition is inactive: -4.9%. The result for `Cc1cccc(OCC(=O)OC2CN3CCC2CC3)c1` (stereo unspecified) reads inactive: -0.88%; that for `COc1cc(C(=O)NCC2(N3CCOCC3)CCCCC2)cc(Cl)c1OC(C)C`, inactive: -0.8%. As for `O=[As](O)(O)c1cccnc1`, the inhibition is inactive: 3.78%. For `CS(=O)(=O)c1ccc(Cl)c(NC(=O)COC(=O)C(O)(c2ccccc2)c2ccccc2)c1` the value was inactive: -6.23%; for `O=C(OC1CN2CCC1CC2)c1ccc(Cl)cc1` (stereo unspecified), inactive: -4.51%. The result for `COc1cc(C2NCCC3(OCCO3)C2(C)C)cc(OC)c1OC` (stereo unspecified) reads inactive: -9.7%.

With `CCOP(=O)(Nc1cccc2ccccc12)OCC`, the inhibition is inactive: -5.85%. For `CCCOP(=S)(Nc1nc(N)cc(=O)[nH]1)OCCC`, the inhibition is inactive: 5.54%. For `Nc1cccc2c([As](=O)(O)O)cccc12` the value was inactive: -11.6%; for `Cc1ccc(NCCc2c([N+](=O)[O-])cc([N+](=O)[O-])cc2[N+](=O)[O-])cc1`, inactive: -5.28%; for `Clc1n[nH]nc1-c1nn[nH][15n]1`, inactive: -0.78%. For `O=P1(N(CCCl)CCCl)NCCC(C(F)(F)F)O1` (stereo unspecified) the value was inactive: -2.17%; for `CC(C)(C)C(=O)NC(Sc1ncccn1)C(Cl)(Cl)Cl` (stereo unspecified), inactive: 9.16%; for `CN(CCCl)Cc1cc(Cl)c(NC2=NCCN2)c(Cl)c1`, inactive: -2.19%. The result for `CCOP(=O)(Nc1ccc(C)cn1)OCC` reads inactive: -7.07%.

For the compound `CCC1=CC2Cc3nc4ccc(Cl)cc4c(N)c3C(C1)C2` (stereo unspecified), the inhibition is inactive: -20.2%. `O=P1(Nc2ccccn2)COc2ccccc2OC1`: the inhibition is inactive: -4.32%. For `CCOP(=O)(NC(=NC(C)c1ccccc1)NC(C)c1ccccc1)OCC` (stereo unspecified) the value was inactive: -4.83%; for `CC(C)/C=N\N=C(\N)N[N+](=O)[O-]`, inactive: -0.11%. In the case of `CN(C(=O)Cc1ccc(Cl)c(Cl)c1)C1CCCC[C@@H]1N1CCCC1` (stereo partly specified), the inhibition was inactive: -6.47%. The result for `COc1ccccc1CNC(=O)COC(=O)C(O)(c1ccccc1)c1ccccc1` reads inactive: -5.52%; that for `O=C(/C=C/c1ccccc1)OC1CN2CCC1CC2` (stereo unspecified), inactive: -4.82%; that for `CCCC1OP(=O)(Nc2ccccc2)OCC1CC` (stereo unspecified), inactive: -6.32%. As for `CN(C)C1(CNC(=O)c2ccc(S(C)(=O)=O)cc2)CCCCC1`, the inhibition was inactive: -3.04%. Turning to `Cc1nn(-c2ccccc2)c2c1P(=O)(N1CCOCC1)N(C)C(c1ccccc1)=N2` (stereo unspecified), the inhibition is inactive: -8.35%. Turning to `Cc1ccc(C(=O)OC2CN3CCC2CC3)cc1` (stereo unspecified), the inhibition is inactive: -10.5%. In the case of `CC1CCC(C(C)C)C(OP(=O)(Nc2ccccn2)c2ccccc2)C1` (stereo unspecified), the inhibition is inactive: -12.6%. Consider `NS(=O)(=O)c1cccc(NC(=O)COC(=O)C(O)(c2ccccc2)c2ccccc2)c1`, for which the inhibition was inactive: -3.15%. The result for `O=P1(Nc2ccc(Br)cn2)COc2ccccc2OC1` reads inactive: -5.25%; that for `O=[As](O)(c1cccs1)c1cccs1`, inactive: -10.7%. Turning to `Cc1ccc(OCC(=O)OC2CN3CCC2CC3)cc1` (stereo unspecified), the inhibition was inactive: -3.15%. Take `Nc1cccc([As](=O)(O)c2ccccc2)c1`: the inhibition was inactive: -0.55%. `O=P1(Nc2ncccn2)COc2ccccc2OC1`: the inhibition is inactive: -2.37%. Turning to `Cc1ccc(S(=O)(=O)N(CCCN)CCCc2c(C)nc(N)[nH]c2=O)cc1`, the inhibition was inactive: 0.47%. On to `O=P(Nc1nc2ccccc2s1)(c1ccccc1)c1ccccc1`, for which the inhibition is inactive: -1.67%.

For the compound `C[C@H]1OP(=O)(Oc2ccccc2)[C@H](O)[C@H](O)[C@H]1N=[N+]=[N-]` (stereo partly specified), the inhibition was inactive: -2.89%. The result for `Nc1ccc(CCCCOc2ccccc2)cc1` reads inactive: -7.62%; that for `COc1ccc(N)c([N+](=O)[O-])c1[N+](=O)[O-]`, inactive: -4.33%; that for `CN(C)C1(CNC(=O)c2ccc(Cl)c(S(N)(=O)=O)c2)CCCCC1`, inactive: -11.2%. As for `O=P(Nc1ccccn1)(c1ccc(Br)cc1)c1ccc(Br)cc1`, the inhibition is inactive: -3.62%. As to `C/C(N)=N\P(=O)(OCc1ccccc1)OCc1ccccc1`, the inhibition is inactive: -7.29%. For `Nc1ccc([As](=O)(O)c2ccc([N+](=O)[O-])cc2)cc1` the value was inactive: -0.14%. For `C(Cc1nn[nH]n1)Cc1nn[nH]n1` the value was inactive: -5.45%. For `O=C(OC1CN2CCC1CC2)c1cccc(Cl)c1` (stereo unspecified) the value was inactive: -3.25%; for `O=[N+]([O-])c1ncn(CCn2cnc([N+](=O)[O-])n2)n1`, inactive: -3.28%; for `CC(=O)NC(SC(=S)N(C)C)C(Cl)(Cl)Cl` (stereo unspecified), inactive: -0.94%. Take `O=[As](O)(c1ccccc1)c1ccc(O)cc1`: the inhibition is inactive: -4.6%. The result for `c1nnnn1CCn1cnnn1` reads inactive: -2.22%; that for `O=P(Nc1nccs1)(c1ccccc1)c1ccccc1`, inactive: -1.62%; that for `CC(C)C(=O)NC(Sc1ccccc1)C(Cl)(Cl)Cl` (stereo unspecified), inactive: -1.85%.

The term inhibition denotes the change of the read-out against control, counted positive when it falls.
